Laboratory results from US20230143031A1 (published 2023).

Target: T1, gp100 peptide on HLA-A*02:01 (human)
T1 peptide: KTWGQYWQV
Test: multimer staining

binding result: recognises
B1: anti-gp100 TCR (TCR, V domains shown)
Valpha: DQQVKQNSPSLSVQEGRISILNCDYTNSMFDYFLWYKKYPAEGPTFLISISSIKDKNEDGRFTVFLNKSAKHLSLHIVPSQPGDSAVYFCAANSGGGADGLTFGKGTHLIIQP
Vbeta: SAVISQKPSRDICQRGTSLTIQCQVDSQVTMMFWYRQQPGQSLTLIATANQGSEATYESGFVIDKFPISRPNLTFSTLTVSNMSPEDSSIYLCSVAGPSGEKLFFGSGTQLSVL
